ChEMBL document CHEMBL5653609, “Ack1-mediated androgen receptor phosphorylation modulates radiation resistance in castration-resistant prostate cancer” (J Biol Chem, 2012)

The chains behind the UniProt entries cited, without tags or fusion partners. Where a name states a change or a piece, a line headed by the entry shows the natural chain unless it says otherwise.
UniProt P42338: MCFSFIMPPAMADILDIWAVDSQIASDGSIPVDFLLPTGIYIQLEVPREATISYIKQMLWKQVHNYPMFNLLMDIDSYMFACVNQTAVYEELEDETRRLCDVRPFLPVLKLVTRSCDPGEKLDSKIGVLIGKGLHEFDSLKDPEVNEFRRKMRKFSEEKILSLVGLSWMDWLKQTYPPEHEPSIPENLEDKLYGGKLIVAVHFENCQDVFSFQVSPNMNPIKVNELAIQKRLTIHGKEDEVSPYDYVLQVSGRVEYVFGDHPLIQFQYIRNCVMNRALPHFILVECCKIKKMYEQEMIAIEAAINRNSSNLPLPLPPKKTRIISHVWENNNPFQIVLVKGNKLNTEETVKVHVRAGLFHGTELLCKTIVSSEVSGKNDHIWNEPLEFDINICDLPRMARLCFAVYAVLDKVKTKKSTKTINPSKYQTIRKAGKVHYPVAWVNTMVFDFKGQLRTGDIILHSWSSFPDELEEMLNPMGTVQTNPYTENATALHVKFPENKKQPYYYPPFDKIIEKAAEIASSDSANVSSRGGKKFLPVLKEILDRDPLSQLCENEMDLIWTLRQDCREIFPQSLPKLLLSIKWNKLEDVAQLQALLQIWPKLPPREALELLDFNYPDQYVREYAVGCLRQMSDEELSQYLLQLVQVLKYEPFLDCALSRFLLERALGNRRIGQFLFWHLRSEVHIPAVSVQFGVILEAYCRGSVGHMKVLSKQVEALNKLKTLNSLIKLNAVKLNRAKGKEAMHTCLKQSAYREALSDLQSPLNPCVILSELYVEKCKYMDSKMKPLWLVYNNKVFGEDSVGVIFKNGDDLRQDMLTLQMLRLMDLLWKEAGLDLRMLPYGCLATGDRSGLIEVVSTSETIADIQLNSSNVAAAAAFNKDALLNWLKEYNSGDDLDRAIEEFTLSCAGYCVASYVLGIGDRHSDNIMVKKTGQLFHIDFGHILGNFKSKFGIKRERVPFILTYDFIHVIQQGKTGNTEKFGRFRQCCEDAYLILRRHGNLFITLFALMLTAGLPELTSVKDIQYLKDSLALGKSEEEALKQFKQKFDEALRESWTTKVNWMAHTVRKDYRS

Target: Phosphatidylinositol 4,5-bisphosphate 3-kinase catalytic subunit beta isoform (Homo sapiens, UniProt P42338)
Assay: Inhibition of PI3Kbeta (unknown origin) in the presence of [33P]ATP by kinase hotspot assay

O=c1cc(N2CCOCC2)oc2c(-c3ccccc3)cccc12 [LY-294002]
IC50: 363 nM
